Laboratory results published in patent publication US20240024647A1, “MUCOSA PERFORATION” (LTS LOHMANN THERAPIE-SYSTEME AG, priority 2020, published 2024).

Test: In vitro permeation by Franz diffusion cells, dissolving microneedle system loaded with active ingredient, applied into the mucosa versus in reverse
Settings: dissolving microneedle system loaded with adrenalin hydrogen tartrate; acceptor phosphate buffer pH 6.0 + 0.1 wt. % L-ascorbic acid; FIG. 6

- active ingredient flux with the microneedle system applied in the mucosa, factor higher in comparison to the system without penetration into the mucosa: 4
Structure (SMILES): CNCC(O)c1ccc(O)c(O)c1.O=C(O)C(O)C(O)C(=O)O (stereo not shown) [adrenalin hydrogen tartrate]
